Where “and” joins values, the source holds several entries; their conditions need not be identical. Equal values may be shown once. Read-outs that look alike come from different tables or passages of the source.

By UniProt entry, the sequences of proteins in these tests, tags left out. Residues count along the entry.
UniProt P07949, 29-1114 limits assumed: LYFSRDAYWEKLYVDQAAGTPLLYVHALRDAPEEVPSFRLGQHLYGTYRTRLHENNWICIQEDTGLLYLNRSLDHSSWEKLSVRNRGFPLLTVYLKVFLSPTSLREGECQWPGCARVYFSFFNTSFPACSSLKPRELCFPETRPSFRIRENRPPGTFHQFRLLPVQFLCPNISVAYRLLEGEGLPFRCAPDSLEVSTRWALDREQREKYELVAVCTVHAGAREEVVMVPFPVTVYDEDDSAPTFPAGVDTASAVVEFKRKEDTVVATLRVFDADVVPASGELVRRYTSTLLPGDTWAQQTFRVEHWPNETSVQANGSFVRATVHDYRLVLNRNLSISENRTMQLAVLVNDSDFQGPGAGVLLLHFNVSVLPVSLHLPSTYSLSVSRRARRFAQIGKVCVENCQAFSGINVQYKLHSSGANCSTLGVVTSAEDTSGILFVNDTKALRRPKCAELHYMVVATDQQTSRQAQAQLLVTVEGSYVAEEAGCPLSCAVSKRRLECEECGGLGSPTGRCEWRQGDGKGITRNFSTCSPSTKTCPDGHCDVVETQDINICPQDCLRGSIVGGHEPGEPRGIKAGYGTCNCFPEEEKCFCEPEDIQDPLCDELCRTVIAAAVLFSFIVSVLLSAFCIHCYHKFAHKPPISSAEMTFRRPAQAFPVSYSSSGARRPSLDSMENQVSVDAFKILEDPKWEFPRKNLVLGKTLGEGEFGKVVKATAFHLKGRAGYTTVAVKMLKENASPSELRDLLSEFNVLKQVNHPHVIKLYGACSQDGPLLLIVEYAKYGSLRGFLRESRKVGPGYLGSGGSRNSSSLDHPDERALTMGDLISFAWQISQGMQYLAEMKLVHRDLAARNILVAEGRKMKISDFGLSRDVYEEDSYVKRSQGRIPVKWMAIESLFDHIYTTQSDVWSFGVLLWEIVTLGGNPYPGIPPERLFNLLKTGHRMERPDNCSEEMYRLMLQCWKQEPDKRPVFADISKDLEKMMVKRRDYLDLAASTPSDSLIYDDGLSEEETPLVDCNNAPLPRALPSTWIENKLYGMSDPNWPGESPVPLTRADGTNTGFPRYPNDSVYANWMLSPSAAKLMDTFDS
UniProt P36888, 27-993 limits assumed: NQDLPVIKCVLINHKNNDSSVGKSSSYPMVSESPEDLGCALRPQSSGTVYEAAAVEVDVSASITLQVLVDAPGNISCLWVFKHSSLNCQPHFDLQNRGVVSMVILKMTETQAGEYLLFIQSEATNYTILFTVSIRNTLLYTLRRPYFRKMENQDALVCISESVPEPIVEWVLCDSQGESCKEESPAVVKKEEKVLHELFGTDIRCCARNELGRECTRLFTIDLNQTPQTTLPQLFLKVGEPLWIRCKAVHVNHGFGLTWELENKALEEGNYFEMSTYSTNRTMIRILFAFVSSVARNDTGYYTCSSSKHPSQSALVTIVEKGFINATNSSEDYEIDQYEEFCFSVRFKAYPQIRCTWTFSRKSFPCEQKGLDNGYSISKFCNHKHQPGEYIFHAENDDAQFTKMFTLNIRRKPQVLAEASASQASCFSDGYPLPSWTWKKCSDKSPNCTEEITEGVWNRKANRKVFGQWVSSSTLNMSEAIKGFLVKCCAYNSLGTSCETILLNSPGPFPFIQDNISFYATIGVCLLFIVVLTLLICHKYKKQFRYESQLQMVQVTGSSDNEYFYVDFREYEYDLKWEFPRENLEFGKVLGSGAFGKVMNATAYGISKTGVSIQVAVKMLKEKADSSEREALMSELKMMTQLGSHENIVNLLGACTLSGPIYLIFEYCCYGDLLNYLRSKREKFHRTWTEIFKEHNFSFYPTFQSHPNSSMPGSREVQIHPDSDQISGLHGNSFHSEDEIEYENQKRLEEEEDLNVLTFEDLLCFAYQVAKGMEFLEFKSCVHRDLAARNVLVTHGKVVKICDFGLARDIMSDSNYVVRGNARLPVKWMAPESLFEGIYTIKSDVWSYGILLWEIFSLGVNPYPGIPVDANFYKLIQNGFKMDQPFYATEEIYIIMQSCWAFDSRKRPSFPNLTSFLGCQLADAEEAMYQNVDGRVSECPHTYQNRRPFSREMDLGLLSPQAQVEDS
UniProt P10721, 26-976 limits assumed: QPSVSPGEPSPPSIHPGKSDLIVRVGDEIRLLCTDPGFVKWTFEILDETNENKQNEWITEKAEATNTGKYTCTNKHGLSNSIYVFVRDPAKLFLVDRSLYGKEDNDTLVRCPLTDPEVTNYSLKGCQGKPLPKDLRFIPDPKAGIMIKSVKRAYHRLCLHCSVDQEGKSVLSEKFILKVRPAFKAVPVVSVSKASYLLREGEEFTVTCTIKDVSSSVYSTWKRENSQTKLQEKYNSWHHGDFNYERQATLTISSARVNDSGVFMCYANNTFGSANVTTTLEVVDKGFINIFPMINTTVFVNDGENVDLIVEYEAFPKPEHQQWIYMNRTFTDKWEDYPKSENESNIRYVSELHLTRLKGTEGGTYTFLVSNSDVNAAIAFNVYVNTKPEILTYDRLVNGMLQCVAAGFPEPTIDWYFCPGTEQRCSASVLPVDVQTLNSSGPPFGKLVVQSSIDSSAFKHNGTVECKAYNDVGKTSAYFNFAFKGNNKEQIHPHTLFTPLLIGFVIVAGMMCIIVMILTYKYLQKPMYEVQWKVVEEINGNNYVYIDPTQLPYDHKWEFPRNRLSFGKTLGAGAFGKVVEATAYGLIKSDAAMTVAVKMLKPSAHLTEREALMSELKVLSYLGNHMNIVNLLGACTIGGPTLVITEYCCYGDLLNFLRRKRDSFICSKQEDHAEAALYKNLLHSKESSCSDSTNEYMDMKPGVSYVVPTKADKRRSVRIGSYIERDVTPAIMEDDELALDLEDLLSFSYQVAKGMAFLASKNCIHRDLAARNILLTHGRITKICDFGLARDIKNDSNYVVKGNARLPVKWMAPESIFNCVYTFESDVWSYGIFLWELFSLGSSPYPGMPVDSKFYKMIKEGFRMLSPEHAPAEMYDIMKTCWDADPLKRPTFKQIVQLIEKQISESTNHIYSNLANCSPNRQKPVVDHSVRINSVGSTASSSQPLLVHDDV
UniProt P29320, 21-983 limits assumed: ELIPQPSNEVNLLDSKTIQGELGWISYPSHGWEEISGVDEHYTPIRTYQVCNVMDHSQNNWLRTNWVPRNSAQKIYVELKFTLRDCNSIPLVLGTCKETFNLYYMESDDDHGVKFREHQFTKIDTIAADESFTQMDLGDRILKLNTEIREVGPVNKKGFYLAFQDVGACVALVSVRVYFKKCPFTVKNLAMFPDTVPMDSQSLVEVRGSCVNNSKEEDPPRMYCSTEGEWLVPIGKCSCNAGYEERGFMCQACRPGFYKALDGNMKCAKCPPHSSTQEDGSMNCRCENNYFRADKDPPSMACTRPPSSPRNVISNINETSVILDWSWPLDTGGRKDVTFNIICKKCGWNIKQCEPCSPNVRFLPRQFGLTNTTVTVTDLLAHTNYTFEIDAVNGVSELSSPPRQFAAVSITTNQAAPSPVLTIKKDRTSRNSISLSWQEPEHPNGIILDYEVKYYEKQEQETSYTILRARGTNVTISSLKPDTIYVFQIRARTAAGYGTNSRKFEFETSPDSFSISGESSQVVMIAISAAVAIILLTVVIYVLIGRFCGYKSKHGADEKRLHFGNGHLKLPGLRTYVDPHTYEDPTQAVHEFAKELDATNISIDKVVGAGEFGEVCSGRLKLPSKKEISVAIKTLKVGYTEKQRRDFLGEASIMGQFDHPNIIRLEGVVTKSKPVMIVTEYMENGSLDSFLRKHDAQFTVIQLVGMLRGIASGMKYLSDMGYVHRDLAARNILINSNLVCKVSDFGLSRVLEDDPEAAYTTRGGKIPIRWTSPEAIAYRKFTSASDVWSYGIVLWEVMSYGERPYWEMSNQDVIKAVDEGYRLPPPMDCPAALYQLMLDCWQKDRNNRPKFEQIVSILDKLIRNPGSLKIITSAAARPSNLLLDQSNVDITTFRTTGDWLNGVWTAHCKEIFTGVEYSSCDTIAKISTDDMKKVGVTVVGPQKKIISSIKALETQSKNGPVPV
UniProt Q15375, 28-998 limits assumed: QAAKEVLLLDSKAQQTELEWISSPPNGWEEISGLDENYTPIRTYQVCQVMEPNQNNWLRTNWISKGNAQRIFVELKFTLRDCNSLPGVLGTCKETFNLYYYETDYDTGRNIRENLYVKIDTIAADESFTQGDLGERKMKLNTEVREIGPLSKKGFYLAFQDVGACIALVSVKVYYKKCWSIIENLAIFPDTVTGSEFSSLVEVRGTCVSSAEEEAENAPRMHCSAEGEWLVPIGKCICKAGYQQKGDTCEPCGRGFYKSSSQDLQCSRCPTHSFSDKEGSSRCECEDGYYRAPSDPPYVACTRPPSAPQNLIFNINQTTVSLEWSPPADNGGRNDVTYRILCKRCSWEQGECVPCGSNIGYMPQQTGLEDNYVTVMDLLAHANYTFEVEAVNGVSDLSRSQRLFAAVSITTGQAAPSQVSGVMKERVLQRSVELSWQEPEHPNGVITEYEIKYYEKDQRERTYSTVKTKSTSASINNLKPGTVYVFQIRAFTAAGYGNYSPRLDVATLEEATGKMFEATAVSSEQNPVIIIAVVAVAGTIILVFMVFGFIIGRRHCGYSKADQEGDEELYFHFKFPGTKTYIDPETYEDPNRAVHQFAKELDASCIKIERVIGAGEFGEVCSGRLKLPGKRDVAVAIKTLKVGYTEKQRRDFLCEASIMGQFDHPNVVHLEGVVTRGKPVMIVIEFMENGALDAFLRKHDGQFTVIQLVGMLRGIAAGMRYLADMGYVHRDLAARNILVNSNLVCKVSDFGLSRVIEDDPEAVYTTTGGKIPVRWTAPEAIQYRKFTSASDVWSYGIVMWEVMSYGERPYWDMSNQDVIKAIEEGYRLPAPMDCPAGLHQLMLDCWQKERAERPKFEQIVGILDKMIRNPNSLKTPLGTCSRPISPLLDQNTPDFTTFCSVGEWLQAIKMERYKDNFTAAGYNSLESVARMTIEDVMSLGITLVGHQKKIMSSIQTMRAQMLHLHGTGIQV
UniProt P54762, 18-984 limits assumed: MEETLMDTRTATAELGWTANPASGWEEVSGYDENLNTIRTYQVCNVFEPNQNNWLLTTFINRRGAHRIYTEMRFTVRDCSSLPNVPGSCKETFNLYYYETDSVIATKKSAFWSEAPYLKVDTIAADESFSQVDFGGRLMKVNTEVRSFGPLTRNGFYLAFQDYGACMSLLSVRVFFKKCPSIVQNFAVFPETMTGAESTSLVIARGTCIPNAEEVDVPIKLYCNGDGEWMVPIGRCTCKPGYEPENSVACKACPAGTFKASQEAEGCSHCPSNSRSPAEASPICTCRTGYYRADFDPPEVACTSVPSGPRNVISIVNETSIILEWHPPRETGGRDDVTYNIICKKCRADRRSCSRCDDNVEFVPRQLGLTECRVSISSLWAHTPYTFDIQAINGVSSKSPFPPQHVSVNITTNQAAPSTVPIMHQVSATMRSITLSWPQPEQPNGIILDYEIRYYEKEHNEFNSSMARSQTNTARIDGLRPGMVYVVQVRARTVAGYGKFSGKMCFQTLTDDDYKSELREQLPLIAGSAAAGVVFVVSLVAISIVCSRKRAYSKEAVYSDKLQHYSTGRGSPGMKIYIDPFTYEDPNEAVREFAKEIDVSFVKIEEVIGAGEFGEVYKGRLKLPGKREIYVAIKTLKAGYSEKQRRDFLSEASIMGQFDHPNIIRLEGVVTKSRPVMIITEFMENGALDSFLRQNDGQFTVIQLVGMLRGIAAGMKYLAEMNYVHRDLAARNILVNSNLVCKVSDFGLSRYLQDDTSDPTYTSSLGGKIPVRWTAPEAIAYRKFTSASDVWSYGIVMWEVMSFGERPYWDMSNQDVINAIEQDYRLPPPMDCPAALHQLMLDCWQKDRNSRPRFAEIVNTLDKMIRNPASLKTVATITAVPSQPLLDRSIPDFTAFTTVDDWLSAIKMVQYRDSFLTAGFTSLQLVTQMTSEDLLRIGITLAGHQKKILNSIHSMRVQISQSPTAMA

Some targets named below: RET (Homo sapiens (Human), UniProt P07949); NEK11 (Homo sapiens (Human), UniProt Q8NG66); BRAF (Homo sapiens (Human), UniProt P15056).
For the next data set, the target named is ABL1 wt (Homo sapiens (Human), UniProt P00519). It is filed as biochemical.
The target in a further data set is SIK1 (Homo sapiens (Human), UniProt P57059). The conditions noted are these: read-out: SIK1 IC50.
The target in another data set is SIK2 (Homo sapiens (Human), UniProt Q9H0K1). To be noted: read-out: SIK2 IC50.
A further data set deals with SRC (GST-HIS-tag) (Homo sapiens (Human), UniProt P12931). Kind of data set: biochemical.
For another data set, the target named is ABL1 G250E (Homo sapiens, UniProt P00519, G250E). The conditions noted are these: read-out: ABL1 G250E IC50.
The next data set has as its target ABL1 Q252H (Homo sapiens, UniProt P00519, Q252H). The conditions noted are these: read-out: ABL1 Q252H IC50.
The next data set concerns the target ABL1 Y253F (Homo sapiens, UniProt P00519, Y253F). The conditions noted are these: read-out: ABL1 Y253F IC50.
The next data set concerns the target ABL1 E255K (Homo sapiens, UniProt P00519, E255K). The conditions noted are these: read-out: ABL1 E255K IC50.
The next data set addresses ABL1 T315I (Homo sapiens, UniProt P00519, T315I). The conditions noted are these: read-out: ABL1 T315I IC50.
For the next data set, the target named is ABL1 F317I (Homo sapiens, UniProt P00519, F317I). To be noted: read-out: ABL1 F317I IC50.
In a further data set the target is ABL1 M351T (Homo sapiens, UniProt P00519, M351T). To be noted: read-out: ABL1 M351T IC50.
The next data set deals with ABL1 H396P (Homo sapiens, UniProt P00519, H396P). The conditions noted are these: read-out: ABL1 H396P IC50.
Data set [1] in a line: in vitro. The conditions noted are these: human, microsomes.
A short description of data set [2]: in vitro. The conditions noted are these: mouse, microsomes.
The next data set deals with FLT3 (Homo sapiens (Human), UniProt P36888). To be noted: read-out: FLT3 IC50.
For a further data set, the target named is SYK (Homo sapiens (Human), UniProt P43405). The conditions noted are these: read-out: SYK IC50.
The target in a further data set is KIT (Homo sapiens (Human), UniProt P10721). To be noted: read-out: KIT IC50.
Another data set has as its system NIK. It counts as biochemical.
The next data set relates to RAF1. It counts as biochemical.
The test system of another data set is KASUMI-1 cell line. Kind of data set: Growth inhibition (GI50) of AML cell lines. It counts as cell-based. The conditions noted are these: Homo sapiens, Kasumi 1, read-out: GI50 against KASUMI-1 cell line.
The subject of another data set is MV4-11 cell line. Nature of the data set: Growth inhibition (GI50) of AML cell lines. It is filed as cell-based. The conditions noted are these: Homo sapiens, MV4-11, read-out: GI50 against MV4-11 cell line.
For data set [3] the following is noted: humans; cited from earlier work.
For data set [4] the following is noted: cited from earlier work.
The target in the next data set is EPH-A3 (Homo sapiens (Human), UniProt P29320). Kind of data set: biochemical. The conditions noted are these: read-out: EPH-A3 residual activity (%) at 1 μM.
The target in another data set is EPH-A7 (Homo sapiens (Human), UniProt Q15375). Kind of data set: biochemical. The conditions noted are these: read-out: EPH-A7 residual activity (%) at 1 μM.
For the next data set, the target named is EPH-B1 (Homo sapiens (Human), UniProt P54762). Nature of the data set: biochemical. To be noted: read-out: EPH-B1 residual activity (%) at 1 μM.
Data set [5] is described as follows: Human plasma-protein binding.
The test system of data set [6] is MC38 colorectal carcinoma tumours. Nature of the data set: MC38 syngeneic mouse tumour model (Example 8.1). To be noted: comparative study, 30 mg/kg QD.
The test system of data set [7] is MC38 murine tumour cell line. Nature of the data set: TNF-sensitised cell viability assay (CellTiter-Glo). To be noted: Mus musculus, MC-38, read-out: MC38 IC50 (at 100 ng/mL rMuTNF).
A further data set relates to HCT116 cells. The description is as above. To be noted: Homo sapiens, HCT-116, read-out: HCT116 IC50 (at 10 ng/ml rHuTNF).

With `Cc1nc(Nc2ncc(C(=O)Nc3c(C)cncc3C)s2)cc(N2CCN(CCO)CC2)n1` [Compound C5, N-(3,5-dimethylpyridin-4-yl)-2-((6-(4-(2-hydroxyethyl)piperazin-1-yl)-2-methylpyrimidin-4-yl)amino)thiazole-5-carboxamide], the IC50 on ABL1 wt turned out to be 28.2 nM; on SIK1, 30.6 nM; on SIK2, 119 nM.

In the case of `Cc1nc(Nc2ncc(C(=O)Nc3c(Br)ccnc3C)s2)cc(N2CCN(CCO)CC2)n1` [Compound C3, N-(4-bromo-2-methylpyridin-3-yl)-2-((6-(4-(2-hydroxyethyl)piperazin-1-yl)-2-methylpyrimidin-4-yl)amino)thiazole-5-carboxamide], the IC50 on ABL1 wt is 39.7 nM; against SRC (GST-HIS-tag), < 2 nM and 1.59 nM; on SIK1 it was 571 nM; at ABL1 G250E, 101 nM; at ABL1 Q252H, 29.7 nM; on ABL1 Y253F it was 16.1 nM. Besides, the IC50 worked out at 111 nM at ABL1 E255K; 43800 nM at ABL1 T315I; 823 nM at ABL1 F317I; 37 nM at ABL1 M351T; 32.5 nM at ABL1 H396P; 1540 nM on SIK2.

Take `Cc1nc(NCCO)cc(Nc2ncc(C(=O)Nc3c(Cl)ccnc3C)s2)n1` [Compound C11, N-(4-chloro-2-methylpyridin-3-yl)-2-((6-((2-hydroxyethyl)amino)-2-methylpyrimidin-4-yl)amino)thiazole-5-carboxamide]: the IC50 is 4.43 nM on ABL1 wt, 302 nM on SIK1 and 470 nM on SIK2.

Take `Cc1nc(Nc2ncc(C(=O)Nc3c(C)ccnc3C)s2)cc(N2CCN(CCO)CC2)n1` [Compound C1, N-(2,4-dimethylpyridin-3-yl)-2-((6-(4-(2-hydroxyethyl)piperazin-1-yl)-2-methylpyrimidin-4-yl)amino)thiazole-5-carboxamide]: the values for the IC50 against ABL1 wt, at SIK1 and on SIK2 were 13 nM, 132 nM and 641 nM, respectively.

For `Cc1nc(Nc2ncc(C(=O)N[C@H]3CN4CCC3CC4)s2)cc(N2CCN(CCO)CC2)n1` [Compound C12, (R)-2-((6-(4-(2-hydroxyethyl)piperazin-1-yl)-2-methylpyrimidin-4-yl)amino)-N-(quinuclidine-3-yl)thiazole-5-carboxamide], the figures for the IC50 against ABL1 wt, against SRC (GST-HIS-tag) and on SIK1 were 391 nM, 73.7 nM and 1710 nM, respectively. The half-life in “in vitro [1]” and in the data set “in vitro [2]” was above 1.67 h in each case.

As for `Cc1nc(Nc2ncc(C(=O)Nc3c(C)csc3Cl)s2)cc(N2CCN(CCO)CC2)n1` [Compound C7, N-(2-chloro-4-methylthiophen-3-yl)-2-((6-(4-(2-hydroxyethyl)piperazin-1-yl)-2-methylpyrimidin-4-yl)amino)thiazole-5-carboxamide], on SIK1, the IC50 worked out at 13.4 nM.

Turning to `Cc1nc(Nc2ncc(C(=O)Nc3c(C)cncc3Cl)s2)cc(N2CCN(CCO)CC2)n1` [Compound C4, N-(3-chloro-5-methylpyridin-4-yl)-2-((6-(4-(2-hydroxyethyl)piperazin-1-yl)-2-methylpyrimidin-4-yl)amino)thiazole-5-carboxamide], the IC50 turned out to be 17.7 nM on ABL1 wt; 32.7 nM on SIK1; 45.6 nM on ABL1 G250E; 15.2 nM on ABL1 Q252H; 11 nM on ABL1 Y253F; 51.6 nM at ABL1 E255K. Besides, the IC50 on ABL1 T315I worked out at 23400 nM; on ABL1 F317I, 189 nM; at ABL1 M351T, 19.4 nM; on ABL1 H396P, 13.2 nM; on SIK2, 130 nM.

Regarding `Cc1nc(Nc2ncc(C(=O)Nc3c(Cl)ccnc3C)s2)cc(N2CCN(CCO)CC2)n1` [Compound B3, N-(4-chloro-2-methylpyridin-3-yl)-2-((6-(4-(2-hydroxyethyl)piperazin-1-yl)-2-methylpyrimidin-4-yl)amino)thiazole-5-carboxamide], the IC50 on FLT3 came out at 6900 nM; on FLT3 (as stated in text) it was 6900 nM; on SYK, 26000 nM; on SYK (as stated in text) it was 26000 nM; at KIT it was 40.4 nM. Also, the “RET residual activity (%) at 1 μM” value at RET is 98%. Also, the “NEK11 residual activity (%) at 1 μM” value at NEK11 was found to be 89%. The “BRAF residual activity (%) at 1 μM” value at BRAF was 46%.

As for `Cc1nc(Nc2ncc(C(=O)Nc3c(C)cccc3Cl)s2)cc(N2CCN(CCO)CC2)n1` [Compound A8, N-(2-chloro-6-methylphenyl)-2-((6-(4-(2-hydroxyethyl)piperazin-1-yl)-2-methylpyrimidin-4-yl)amino)thiazole-5-carboxamide, reference compound], the “NIK residual activity (%) at 1 μM” value in the data set on NIK is given as 82%. For the same compound, the “RAF1 residual activity (%) at 1 μM” value in the data set on RAF1 worked out at 14%. Also, the GI50 amounted to 2.8 nM in the data set with KASUMI-1 cell line and 325 nM in the data set on MV4-11 cell line. Besides, the “overall mean terminal half-life” value in data set [3] is 3 to 5 h. For the same compound, the “severe central nervous system (CNS) haemorrhages (including fatalities)” value in data set [4] (all clinical studies) is 1 % of patients. Further, the QT prolongation result in [4] (human, in vivo) is listed as “up to 1 % of CML patients”. Further, the cardiac adverse reactions in data set [4] (human, in vivo) is recorded as 5.8 % of 258 patients. Further, the “other cases of severe haemorrhage” value in data set [4] (human, in vivo) was 2 % of patients. The severe fluid retention entry in [4] (human, in vivo) is given as “up to 10 % of patients”. Besides, the remaining activity at 1 µM on EPH-A3 worked out at 0%; at EPH-A7, 88%; on EPH-B1, 0%. Moreover, the “Human plasma-protein binding, Percentage unbound (%)” value in data set [5] (Table 5A) and in data set [5] (Table 5.1A) was 2% in each case. Moreover, in data set [6], the “average TGI” value is 56%. For the same compound, the IC50 (in data set [7]; with HCT116 cells) was below 100 nM each time.

As for `Cc1nc(Nc2ncc(C(=O)Nc3c(C)nn(C)c3C)s2)cc(N2CCN(CCO)CC2)n1` [Compound C8, 2-((6-(4-(2-hydroxyethyl)piperazin-1-yl)-2-methylpyrimidin-4-yl)amino)-N-(1,3,5-trimethyl-1H-pyrazol-4-yl)thiazole-5-carboxamide], the results for the IC50 against SRC (GST-HIS-tag), at SIK1 and on SIK2 were 22.8 nM, 2800 nM and 4440 nM, respectively.

`Cc1nc(Nc2ncc(C(=O)Nc3cccnc3C)s2)cc(N2CCN(CCO)CC2)n1` [Compound C6, 2-((6-(4-(2-hydroxyethyl)piperazin-1-yl)-2-methylpyrimidin-4-yl)amino)-N-(2-methylpyridin-3-yl)thiazole-5-carboxamide]: the IC50 was 14.7 nM on ABL1 wt, 336 nM at SIK1 and 385 nM at SIK2.

One may read the half-life as how long it takes for the measured level to halve. A lower half-life goes with rapid decline. A word on the GI50: it is the concentration giving 50% growth inhibition.
